# Values quoted from earlier work as cited in patent publication US6410588B1, “Use of cannabinoids as anti-inflammatory agents” (priority 1998, dated 2002).
# By UniProt entry, the sequences of proteins in these tests, tags left out.
# UniProt P21554, whole entry, species assumed: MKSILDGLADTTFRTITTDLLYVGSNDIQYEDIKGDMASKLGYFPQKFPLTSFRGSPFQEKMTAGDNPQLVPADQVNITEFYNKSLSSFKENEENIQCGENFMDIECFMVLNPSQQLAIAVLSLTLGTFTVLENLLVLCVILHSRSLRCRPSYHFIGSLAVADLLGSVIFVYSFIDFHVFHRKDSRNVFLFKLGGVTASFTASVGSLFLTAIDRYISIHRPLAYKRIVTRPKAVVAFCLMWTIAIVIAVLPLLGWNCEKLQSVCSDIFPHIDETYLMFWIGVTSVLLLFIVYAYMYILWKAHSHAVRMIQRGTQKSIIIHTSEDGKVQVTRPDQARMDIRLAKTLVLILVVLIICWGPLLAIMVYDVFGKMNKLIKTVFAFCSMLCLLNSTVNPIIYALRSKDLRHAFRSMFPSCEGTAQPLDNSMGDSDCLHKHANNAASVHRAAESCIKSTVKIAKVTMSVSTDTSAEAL
# Target: CB1 (Homo sapiens, UniProt P21554)
# Settings: cited from earlier work
smiles,measurement,value
"C=C(C)[C@@H]1CCC(C)=C[C@H]1c1c(O)cc(CCCCC)cc1O [CBD, Cannabidiol]",binding to brain receptor CB1,does not bind
